# Data as given in US20170143835A1, “SUBSTITUTED ANIONIC COMPOUNDS CONSISTING OF A BACKBONE MADE UP OF A DISCRETE NUMBER OF SACCHARIDE UNITS” (ADOCIA, priority 2012, published 2017).
# Sequences of proteins named here, by UniProt entry; tags and fusion partners are left off. Residues count along the entry.
# UniProt P02769, 25-607: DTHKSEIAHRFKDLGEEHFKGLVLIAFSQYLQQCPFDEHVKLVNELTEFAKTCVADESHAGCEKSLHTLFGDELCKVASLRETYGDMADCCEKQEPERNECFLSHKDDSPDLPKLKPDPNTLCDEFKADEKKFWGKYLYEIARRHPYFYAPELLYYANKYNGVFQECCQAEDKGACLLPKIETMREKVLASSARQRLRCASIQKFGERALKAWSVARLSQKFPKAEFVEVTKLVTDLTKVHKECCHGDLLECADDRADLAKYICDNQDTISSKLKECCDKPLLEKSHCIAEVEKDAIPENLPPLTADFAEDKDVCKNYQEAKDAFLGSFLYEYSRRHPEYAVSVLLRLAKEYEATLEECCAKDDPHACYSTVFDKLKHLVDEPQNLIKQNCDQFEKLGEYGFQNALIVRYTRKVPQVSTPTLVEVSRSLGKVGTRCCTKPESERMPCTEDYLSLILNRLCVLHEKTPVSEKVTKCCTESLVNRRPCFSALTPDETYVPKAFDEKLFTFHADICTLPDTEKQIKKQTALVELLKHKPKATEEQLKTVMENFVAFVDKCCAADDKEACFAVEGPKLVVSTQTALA
# Target: serum albumin (BSA) (Bos taurus, UniProt P02769)
# Test: Fluorescence test for interaction with albumin
# Format: binding, bovine
# Details: compound/BSA weight ratio 1; BSA 0.5 mg/ml, PBS pH 7.4; excitation 280 nm, emission 350 nm
# Experimental: The test carried out is a “fluorescence” test with albumin, which makes it posible, by measuring the variations in fluorescence of albumin, to verify whether an interaction exists between the compound tested and albumin.
# The compound/albumin solutions are prepared from stock solutions of compounds and of serum albumin (BSA) by mixing the appropriate volumes in order to obtain a fixed BSA concentration at 0.5 mg/ml and compound/BSA weight ratios of 1, 5 and 10. These solutions are prepared in a PBS buffer at pH 7.4.
# 200 μl of the various compound/BSA solutions are introduced into a 96-well plate. The fluorescence measurements are carried out at room temperature (20° C.) with an EnVision® fluorescence spectrometer (PerkinElmer). […] This corresponds to the fluorescence of the tryptophan residues of albumin (Ruiz-Peña M. et al., M, A. Physico-chemical studies of molecular interactions between non-ionic surfactants and bovine serum albumin, Colloids Surf. B Biointerfaces 2010, 75, 282-289). […] If this ratio is less than 1, this means that the compound induces partial quenching of the albumin fluorescence linked to a change in environment of the tryptophan residues. […] It was verified, as a control, that, for all the compounds tested, the fluorescence of the compound alone is negligible considering the fluorescence of albumin (fluorescence (compound) <2% fluorescence (albumin)).
substance,measurement,value
Sodium maltotriosemethylcarboxylate Functionalized with dilauryl aspartate [Compound 19],Result F/F0 <0.5,YES
